The target in assay [1] is human somatostatin receptor subtype SSTR2 (Homo sapiens, UniProt P30874). Nature of the assay: Competition binding with 125I-LTT-sst-28, CHO cell membranes, SSTR2. To be noted: read-out: Ki (SSTR2), membranes of CHO cells stably transfected with human SSTR2, Ki from IC50 by Cheng-Prusoff. The procedure:
(§1) The affinity of the compounds of the invention for the five human somatostatin receptor subtypes (SSTR1, SSTR2, SSTR3, SSTR4, and SSTR5) was determined in competition binding assays with (^125I-Tyr)-[Leu^8, DTrp^22]-somatostatin-28 (^125I-LTT-sst-28). The biological material for these experiments consisted of membranes from Chinese hamster ovary (CHO) cells stably transfected with one of the five human somatostatin receptor subtypes. Membranes (3-20 μg of total protein per sample) and trace amount of ^125I-LTT-sst-28 were incubated in 10 mM Hepes, 1 mM EDTA, 5 mM MgCl2, 5 mg/ml of BSA and 30 μg/ml bacitracin, pH 7.6 with six concentrations of the compounds. Each concentration was run in duplicate. Nonspecific binding was defined by 1 μM somatostatin-14 (sst-14) and corresponded to 5-25% of total binding. After 60 min at room temperature, incubations were terminated by rapid vacuum filtration through GF/B glass fiber filter mats (presoaked at 4° C. in 200 ml of 10 mM Hepes, 1 mM EDTA, 5 mM MgCl2, pH 7.6) and three 5 ml washes with ice-cold wash buffer (20 mM TRIS, 1 mM EDTA, 5 mM MgCl2, pH 7.4). The filters were then dried, impregnated with scintillate and their radioactivity was measured by scintillation counting. […] Affinity constants (Ki) were calculated from the IC50 values according to the Cheng-Prusoff's equation (Cheng and Prusoff, 1973). […]

Chains of the proteins cited; added tags and fusions are not shown.
UniProt P30874, whole entry: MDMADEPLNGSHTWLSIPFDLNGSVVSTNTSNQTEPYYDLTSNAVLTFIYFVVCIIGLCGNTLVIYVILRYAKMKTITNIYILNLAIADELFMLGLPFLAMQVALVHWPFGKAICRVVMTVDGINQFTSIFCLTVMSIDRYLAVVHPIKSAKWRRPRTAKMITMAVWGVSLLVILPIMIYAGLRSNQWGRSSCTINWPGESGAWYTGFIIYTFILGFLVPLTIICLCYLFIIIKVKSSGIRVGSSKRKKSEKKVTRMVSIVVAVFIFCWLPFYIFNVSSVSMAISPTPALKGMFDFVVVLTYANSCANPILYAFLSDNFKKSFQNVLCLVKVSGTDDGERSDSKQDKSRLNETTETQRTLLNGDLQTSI
UniProt P32745, whole entry: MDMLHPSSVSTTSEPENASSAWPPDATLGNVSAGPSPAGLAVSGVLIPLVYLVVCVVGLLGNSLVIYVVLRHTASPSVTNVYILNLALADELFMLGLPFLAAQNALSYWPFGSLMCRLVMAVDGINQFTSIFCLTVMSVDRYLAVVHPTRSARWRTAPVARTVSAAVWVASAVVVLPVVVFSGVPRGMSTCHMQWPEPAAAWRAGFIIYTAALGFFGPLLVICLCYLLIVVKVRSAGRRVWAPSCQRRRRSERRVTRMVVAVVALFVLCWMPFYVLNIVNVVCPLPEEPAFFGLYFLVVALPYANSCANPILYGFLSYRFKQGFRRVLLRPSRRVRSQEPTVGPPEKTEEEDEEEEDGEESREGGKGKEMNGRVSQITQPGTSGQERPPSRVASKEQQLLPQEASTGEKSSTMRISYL
UniProt P30872, whole entry: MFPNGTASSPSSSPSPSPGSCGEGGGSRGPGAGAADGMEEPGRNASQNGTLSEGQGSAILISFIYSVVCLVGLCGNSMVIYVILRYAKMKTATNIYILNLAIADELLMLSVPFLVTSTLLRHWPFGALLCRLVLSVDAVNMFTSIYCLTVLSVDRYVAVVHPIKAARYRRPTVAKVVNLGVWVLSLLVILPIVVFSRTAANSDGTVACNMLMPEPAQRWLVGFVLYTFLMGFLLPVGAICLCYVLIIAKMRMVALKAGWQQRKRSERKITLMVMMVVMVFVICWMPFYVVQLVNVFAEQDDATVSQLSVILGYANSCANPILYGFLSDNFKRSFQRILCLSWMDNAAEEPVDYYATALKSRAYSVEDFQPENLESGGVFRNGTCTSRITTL

The target of assay [2] is human somatostatin receptor subtype SSTR3 (Homo sapiens, UniProt P32745). Description: Competition binding with 125I-LTT-sst-28, CHO cell membranes, SSTR3. Conditions: read-out: Ki (SSTR3), membranes of CHO cells stably transfected with human SSTR3, Ki from IC50 by Cheng-Prusoff. The procedure:
as §1

Assay [3] has as its target human somatostatin receptor subtype SSTR4 (Homo sapiens, UniProt P31391). Nature of the assay: Competition binding with 125I-LTT-sst-28, CHO cell membranes, SSTR4. To be noted: read-out: Ki (SSTR4), membranes of CHO cells stably transfected with human SSTR4, Ki from IC50 by Cheng-Prusoff. The procedure: as §1
Assay [4] addresses human somatostatin receptor subtype SSTR1 (Homo sapiens, UniProt P30872). Nature of the assay: Competition binding with 125I-LTT-sst-28, CHO cell membranes, SSTR1. Conditions: read-out: Ki (SSTR1), membranes of CHO cells stably transfected with human SSTR1, Ki from IC50 by Cheng-Prusoff. The method, then:
as §1

A value given as a limit tells only on which side of the number the result lay.

The Ki is the dissociation constant of the complex between target and ligand, obtained from inhibition or displacement. For `NCC[C@H](NS(=O)(=O)c1cccc2ccccc12)C(=O)N[C@@H](Cc1ccccc1)C(N)=O`, the inhibitory constant (Ki) in assay [1] is greater than 30 µM; in assay [2] it was greater than 10 µM; in assay [3], 5.9 nM; in assay [4] it was greater than 3000 nM.

(Values after patent US20070129313A1, “Sulfonylamino-peptidomimetics active on the somatostatin receptor subtypes 4 (sstr4) and 1 (sstr1)” (SIEGFRIED WURSTER, priority 2003, published 2007).)
